Data reported in ChEMBL document CHEMBL1128407 (J Med Chem, 1995).

Protein sequences, listed by entry. Tags and fused reporters are not part of them.
UniProt P02550, whole entry, looked up: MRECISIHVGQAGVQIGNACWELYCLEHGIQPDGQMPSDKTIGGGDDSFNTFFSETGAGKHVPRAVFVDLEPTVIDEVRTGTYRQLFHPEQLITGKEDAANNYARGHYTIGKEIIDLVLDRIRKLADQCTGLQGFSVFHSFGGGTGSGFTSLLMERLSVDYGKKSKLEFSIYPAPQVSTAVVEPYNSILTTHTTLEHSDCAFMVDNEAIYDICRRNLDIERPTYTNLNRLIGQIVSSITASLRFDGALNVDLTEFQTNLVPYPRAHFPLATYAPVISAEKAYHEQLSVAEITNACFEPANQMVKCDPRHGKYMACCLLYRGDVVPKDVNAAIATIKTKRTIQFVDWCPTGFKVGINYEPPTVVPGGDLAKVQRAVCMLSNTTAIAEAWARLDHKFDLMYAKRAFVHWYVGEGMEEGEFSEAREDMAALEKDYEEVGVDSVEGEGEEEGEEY

Molecular target: Tubulin alpha chain (Sus scrofa) (UniProt P02550)
Experiment: Compound is evaluated for tubulin polymerization (ratio of compound relative to paclitaxel (EC0.01).

Work on `CC(=O)O[C@H]1C(=O)[C@]2(C)[C@@H](O)CC3OC[C@@]3(OC(=O)C3CC3)[C@H]2[C@H](OC(=O)c2ccccc2)[C@]2(O)C[C@H](OC(=O)[C@H](O)[C@@H](NC(=O)c3ccccc3)c3ccccc3)C(C)=C1C2(C)C` (stereo partly specified) yielded a Ratio of 0.3.
